Results as given in patent US10457677B2 (priority 2015, dated 2019).

Protein sequences, listed by entry. Tags and fused reporters are not part of them. Lines headed by an entry give the natural chain unless they say otherwise; changes in a name come on top.
UniProt O00329: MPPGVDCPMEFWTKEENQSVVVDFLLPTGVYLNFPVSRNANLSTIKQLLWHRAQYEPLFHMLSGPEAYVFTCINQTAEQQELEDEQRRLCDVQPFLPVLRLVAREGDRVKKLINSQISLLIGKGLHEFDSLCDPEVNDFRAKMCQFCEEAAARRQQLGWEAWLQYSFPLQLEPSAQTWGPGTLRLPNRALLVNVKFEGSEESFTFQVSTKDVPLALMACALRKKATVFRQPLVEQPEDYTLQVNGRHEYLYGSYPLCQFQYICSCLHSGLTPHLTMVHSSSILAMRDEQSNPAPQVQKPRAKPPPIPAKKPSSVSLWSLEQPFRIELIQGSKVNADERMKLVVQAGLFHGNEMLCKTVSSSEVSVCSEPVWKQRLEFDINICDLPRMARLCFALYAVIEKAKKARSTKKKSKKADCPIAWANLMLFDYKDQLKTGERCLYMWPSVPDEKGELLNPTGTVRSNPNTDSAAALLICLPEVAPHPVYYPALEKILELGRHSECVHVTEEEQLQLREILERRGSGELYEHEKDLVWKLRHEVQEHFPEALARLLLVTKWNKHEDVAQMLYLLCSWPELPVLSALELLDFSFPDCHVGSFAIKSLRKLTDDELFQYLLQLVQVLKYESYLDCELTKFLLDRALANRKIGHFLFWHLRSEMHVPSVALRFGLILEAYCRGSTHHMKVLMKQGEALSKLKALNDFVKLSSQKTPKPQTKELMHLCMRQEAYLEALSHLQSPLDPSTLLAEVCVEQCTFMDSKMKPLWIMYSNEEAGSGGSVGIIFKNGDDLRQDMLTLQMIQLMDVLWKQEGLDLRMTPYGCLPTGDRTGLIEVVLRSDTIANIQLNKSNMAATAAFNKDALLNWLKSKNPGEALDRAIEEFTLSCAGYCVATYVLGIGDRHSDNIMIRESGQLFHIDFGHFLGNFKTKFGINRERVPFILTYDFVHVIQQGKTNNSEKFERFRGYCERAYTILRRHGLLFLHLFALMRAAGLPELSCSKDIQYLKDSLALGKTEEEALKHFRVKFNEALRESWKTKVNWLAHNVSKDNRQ
UniProt P42336, whole entry: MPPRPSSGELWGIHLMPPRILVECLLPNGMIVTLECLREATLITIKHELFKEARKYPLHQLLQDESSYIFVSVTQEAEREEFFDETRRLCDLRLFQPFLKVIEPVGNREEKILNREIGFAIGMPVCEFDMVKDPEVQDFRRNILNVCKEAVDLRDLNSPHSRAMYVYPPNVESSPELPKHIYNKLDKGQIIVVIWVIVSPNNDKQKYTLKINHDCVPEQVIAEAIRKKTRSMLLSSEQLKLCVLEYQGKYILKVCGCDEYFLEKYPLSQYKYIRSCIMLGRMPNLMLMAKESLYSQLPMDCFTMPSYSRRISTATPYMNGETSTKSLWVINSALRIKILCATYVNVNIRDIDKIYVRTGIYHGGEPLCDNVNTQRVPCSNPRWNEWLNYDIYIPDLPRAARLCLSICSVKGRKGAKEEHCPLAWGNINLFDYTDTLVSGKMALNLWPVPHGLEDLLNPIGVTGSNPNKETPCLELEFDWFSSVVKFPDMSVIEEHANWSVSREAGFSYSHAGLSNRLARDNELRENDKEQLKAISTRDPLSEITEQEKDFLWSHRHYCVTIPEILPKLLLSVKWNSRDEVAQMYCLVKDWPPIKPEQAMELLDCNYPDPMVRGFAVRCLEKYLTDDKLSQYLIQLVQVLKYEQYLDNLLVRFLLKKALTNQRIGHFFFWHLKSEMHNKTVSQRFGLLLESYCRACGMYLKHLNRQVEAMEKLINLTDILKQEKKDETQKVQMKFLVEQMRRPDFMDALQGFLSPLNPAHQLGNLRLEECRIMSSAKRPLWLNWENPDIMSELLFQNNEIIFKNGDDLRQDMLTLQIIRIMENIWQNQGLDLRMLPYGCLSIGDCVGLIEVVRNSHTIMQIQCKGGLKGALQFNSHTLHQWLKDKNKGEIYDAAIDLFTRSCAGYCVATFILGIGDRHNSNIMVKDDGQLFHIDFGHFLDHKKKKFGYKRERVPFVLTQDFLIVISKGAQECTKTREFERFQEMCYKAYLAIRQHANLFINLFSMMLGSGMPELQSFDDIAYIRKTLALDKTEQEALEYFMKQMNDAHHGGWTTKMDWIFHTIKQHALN
UniProt P48736: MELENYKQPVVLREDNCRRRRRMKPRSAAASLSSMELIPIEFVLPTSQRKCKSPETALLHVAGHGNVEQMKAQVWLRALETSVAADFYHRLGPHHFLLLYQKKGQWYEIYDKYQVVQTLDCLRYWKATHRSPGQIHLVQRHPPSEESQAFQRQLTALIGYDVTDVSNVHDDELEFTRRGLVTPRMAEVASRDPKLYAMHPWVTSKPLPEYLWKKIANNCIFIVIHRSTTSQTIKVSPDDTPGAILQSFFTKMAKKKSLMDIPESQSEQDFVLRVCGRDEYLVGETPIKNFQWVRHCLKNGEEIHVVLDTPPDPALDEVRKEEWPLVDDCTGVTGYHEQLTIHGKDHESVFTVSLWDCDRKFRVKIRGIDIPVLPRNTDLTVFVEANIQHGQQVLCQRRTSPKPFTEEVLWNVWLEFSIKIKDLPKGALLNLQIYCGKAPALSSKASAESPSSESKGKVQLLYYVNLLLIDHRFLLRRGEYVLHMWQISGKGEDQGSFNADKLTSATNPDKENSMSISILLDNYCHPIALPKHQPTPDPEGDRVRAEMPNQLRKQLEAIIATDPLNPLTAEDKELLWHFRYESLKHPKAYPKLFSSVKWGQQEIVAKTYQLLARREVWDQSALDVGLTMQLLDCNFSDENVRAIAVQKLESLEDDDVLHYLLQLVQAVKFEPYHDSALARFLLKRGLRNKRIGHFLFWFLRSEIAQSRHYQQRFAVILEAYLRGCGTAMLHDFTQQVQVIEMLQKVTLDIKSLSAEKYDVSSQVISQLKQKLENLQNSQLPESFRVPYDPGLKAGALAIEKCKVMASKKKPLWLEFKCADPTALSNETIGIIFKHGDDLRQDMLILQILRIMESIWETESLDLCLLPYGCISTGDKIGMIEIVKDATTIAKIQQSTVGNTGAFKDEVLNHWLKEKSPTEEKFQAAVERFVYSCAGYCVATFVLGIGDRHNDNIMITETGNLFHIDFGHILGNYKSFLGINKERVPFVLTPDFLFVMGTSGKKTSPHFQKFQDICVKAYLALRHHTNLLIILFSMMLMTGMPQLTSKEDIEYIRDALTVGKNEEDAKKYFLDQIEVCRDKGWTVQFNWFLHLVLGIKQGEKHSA

How the values were obtained:
Format in all cases: biochemical
Details in all cases: as printed:
[1] = molecular target: PI3K p110δ/p85α (human) (Homo sapiens (Human), UniProt O00329); experiment: PI3K p110δ/p85α (human), non-radioactive assay (HTRF)
Protocol: PI3K p110δ/p85α (Human), Non-radioactive Assay
(§1) PI3K p110δ/p85α (human) was incubated in an assay buffer comprising 10 μM phosphati-dylinositol 4,5-bisphosphate and MgATP (concentration as necessary). The reaction was initiated by addition of MgATP solution. After an incubation time of 30 min at room temperature, the reaction was stopped by addition of a solution consisting of EDTA and biotinylated phosphatidylinositol 3,4,5-trisphosphate. Finally, the detection buffer, consisting of a europium-labelled anti-GST monoclonal antibody, a GST-labelled GRP1 PH domain and streptavidin allophycocyanin, was added. The plate was read out via homogeneous time-resolved fluorescence (HTRF) and the corresponding signals were evaluated via the formula HTRF=10000×(Em665nm/Em620nm).

[2] = molecular target: PI3K p110α/p85α (human) (Homo sapiens (Human), UniProt P42336); experiment: PI3K p110α/p85α (human), non-radioactive assay (HTRF)
Protocol: PI3K p110α/p85α (Human), Non-radioactive Assay
as §1, with “p110α/p85α” for “p110δ/p85α”, “After” for “After an”, “incubation” for “incubation time of 30 min”, “temperature for 40 minutes,” for “temperature,”

[3] = molecular target: PI3K (p120γ) (human) (Homo sapiens (Human), UniProt P48736); experiment: PI3K (p120γ) (human), non-radioactive assay (HTRF)
Protocol: PI3K (p120γ) (Human), Non-radioactive Assay
as §1, with “(p120γ)” for “p110δ/p85α”, “HTRF=10000×(Em665nm/Em620nm). • MgATP=magnesium 5′-O—[hydroxy({[(hydroxyphosphinato)oxy]phosphinato}oxy)phosphoryl]adenosine • MgCl2=magnesium dichloride • EGTA=ethylene glycol bis(aminoethyl ether) N,N,N′,N′-tetraacetic acid • Tween 20=polysorbate 20 Medicament/pharmaceutical Composition” for “HTRF=10000×(Em665nm/Em620nm).”

COc1cnc(-n2c(=O)n(C)c3cnc4cc(OC)c(-c5cnn(C)c5)cc4c32)c(F)c1 [compound 105, 1-(3-Fluoro-5-methoxy-pyridin-2-yl)-7-methoxy-3-methyl-8-(1-methyl-1H-pyrazol-4-yl)-1,3-dihydro-imidazo[4,5-c]quinolin-2-one]
at least 2000 times: ratio IC50 (ATM) vs PI3Kdelta, selectivity with respect to PI3Kdelta [1] | ratio IC50 (ATM) vs PI3Kalpha, selectivity with respect to PI3Kalpha [2] | ratio IC50 (ATM) vs PI3Kgamma, selectivity with respect to PI3Kgamma [3]

[2H]C([2H])([2H])Oc1cnc(-n2c(=O)n(C)c3cnc4cc(OC)c(-c5cnn(C)c5)cc4c32)c(F)c1 [compound 155, 1-[3-Fluoro-5-(trideuterio-methoxy)-2-pyridyl]-7-methoxy-3-methyl-8-(1-methylpyrazol-4-yl) imidazo-[4,5-c]quinolin-2-one]
at least 2000 times: ratio IC50 (ATM) vs PI3Kdelta, selectivity with respect to PI3Kdelta [1] | ratio IC50 (ATM) vs PI3Kalpha, selectivity with respect to PI3Kalpha [2] | ratio IC50 (ATM) vs PI3Kgamma, selectivity with respect to PI3Kgamma [3]
